Data as given in US11834463B2, “High affinity macrocyclic FKB51-inhibitors for treatment of psychiatric disorders” (priority 2020, dated 2023).

By UniProt entry, the sequences of proteins in these tests, tags left out. Residues count along the entry.
UniProt P68106, whole entry: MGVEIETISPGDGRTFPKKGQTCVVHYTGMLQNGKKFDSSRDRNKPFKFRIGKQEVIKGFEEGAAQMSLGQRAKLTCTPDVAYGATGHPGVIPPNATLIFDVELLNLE
UniProt Q13451, 42-130 limits assumed: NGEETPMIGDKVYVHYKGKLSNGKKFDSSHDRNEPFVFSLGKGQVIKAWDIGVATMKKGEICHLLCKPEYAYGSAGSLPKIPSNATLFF
UniProt P62942, whole entry: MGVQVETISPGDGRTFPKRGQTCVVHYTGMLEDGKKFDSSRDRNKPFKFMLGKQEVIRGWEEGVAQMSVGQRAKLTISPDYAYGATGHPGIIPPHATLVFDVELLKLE

Experiments:
FKBP12.6 = FKBP12.6 (Homo sapiens, UniProt P68106); assay: competitive fluorescence polarization assay, binding to FKBP12.6; conditions: read-out: Ki [nM] FKBP12.6; Table 1, competitive Fluorescence Polarization Assay
FKBP51FK1 = FKBP51FK1 (Homo sapiens, UniProt Q13451)
FKBP12 = FKBP12 (Homo sapiens, UniProt P62942); assay: competitive fluorescence polarization assay, binding to FKBP12; conditions: read-out: Ki [nM] FKBP12; Table 1, competitive Fluorescence Polarization Assay

Row | SMILES | Ki (FKBP12.6) [nM] | Ki (FKBP51FK1) [nM] | Ki (FKBP12) [nM]
1 | COc1ccc(CC[C@H]2OC(=O)[C@@H]3CCCCN3C(=O)[C@@H](C3CCCCC3)c3cc(OC)c(c(OC)c3)OCCCOC/C=C/COc3cccc2c3)cc1OC | 315 | 94 | 430
2 | COc1ccc(CC[C@H]2OC(=O)[C@@H]3CCCCN3C(=O)[C@@H](C3CCCCC3)c3cc(OC)c(OC)c(c3)OCCC(=O)COc3cccc2c3)cc1OC | 28 | 10 | 54
3 | COc1ccc(CC[C@H]2OC(=O)[C@@H]3CCCCN3C(=O)[C@@H](C3CCCCC3)c3cc(OC)c(c(OC)c3)OCCC(=O)COc3cccc2c3)cc1OC | 30 | 8 | 53
4 | COc1ccc(CC[C@H]2OC(=O)[C@@H]3CCCCN3C(=O)[C@@H](C3CCCCC3)c3cc(OC)c(c(OC)c3)OCCCOCCCCOc3cccc2c3)cc1OC | 187 | 70 | 350
